Measured values: patent US12551434B2, “Zwitterionic polymer particle compositions and related methods” (WAYNE STATE UNIVERSITY, priority 2020, dated 2026)

Assay type: in vitro ADME, porcine
Experimental: Tracking nanoparticle diffusion in mucus. Nanoparticle diffusion behavior in mucus was studied by modifying methods as described in Lai, S. K. et al. P Natl Acad Sci USA 104, 1482-1487 (2007) and Olmsted, S. S. et al. Biophys J 81, 1930-1937 (2001). Mucus was reconstituted by dissolving porcine stomach mucin in phosphate buffered saline (PBS) at 30 mg/ml. Nanogels were added into 100 μl mucus to reach a final concentration of 3% vol/vol (final particle concentration, 8.25×10^−7 wt/vol) and incubated for 1 h on a Nunc™ glass bottom dish (0.17 mm thickness for the inside bottom glass) before observation. Movies were captured with 64×oil-immersion objective in a spinning disc confocal microscope (Yokogawa CSU-X1M 5000 microlens, Zeiss LSM 800). For each nanogel sample, trajectories of n=50 particles were analyzed, and three samples were examined for each type of nanogel. MSD was calculated with the equation of MSD=<|r(t)-r(0)|^2> at a temporal resolution of 200 ms for 20 s.

MSD relative to anionic and cationic particles: ≥ 100 times | ensemble-averaged geometric mean square displacement (MSD) relative to the PEG particle: about 6.7 times
Substance: poly(3-[[2-(methacryloyloxy)ethyl]dimethylammonio]propionate) [zwitterionic PCB particle]
